IC50 data for four compounds are collected here from patent US9320737B2, “Substituted imidazopyridazines” (Bayer Intellectual Property GmbH, priority 2011, dated 2016).

Chains of the proteins cited; added tags and fusions are not shown. A line that says so, or that is headed by a name, gives the form on record, which may keep a tag or linker.
UniProt Q9BUB5, other isoform, or with tags, fused parts or gaps T344D: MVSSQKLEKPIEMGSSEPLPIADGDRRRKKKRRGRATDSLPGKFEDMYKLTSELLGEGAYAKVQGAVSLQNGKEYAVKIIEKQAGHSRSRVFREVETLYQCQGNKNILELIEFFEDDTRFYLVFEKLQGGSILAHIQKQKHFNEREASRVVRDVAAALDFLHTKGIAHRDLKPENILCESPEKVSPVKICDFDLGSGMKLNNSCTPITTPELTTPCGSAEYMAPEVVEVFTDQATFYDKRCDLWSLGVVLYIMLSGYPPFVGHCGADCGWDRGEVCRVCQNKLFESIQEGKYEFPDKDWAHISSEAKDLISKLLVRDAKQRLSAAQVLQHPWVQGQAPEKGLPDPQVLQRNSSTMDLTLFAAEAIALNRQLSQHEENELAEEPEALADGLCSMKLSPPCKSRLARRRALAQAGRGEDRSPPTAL

SMILES strings stand for the structures. pIC50: −log10 of the molar value.

The assay deals with human full-length MKNK1 (Homo sapiens (Human), UniProt Q9BUB5, T344D). The experiment in a line: MKNK1 kinase assay (MKNK1 TR-FRET assay). The note with it: GST-MKNK1 (T344D), 10 μM ATP, average or median values. It is filed as biochemical. An excerpt:
MKNK1-inhibitory activity of compounds of the present invention was quantified employing the MKNK1 TR-FRET assay as described in the following paragraphs.
A recombinant fusion protein of Glutathione-S-Transferase (GST, N-terminally) and human full-length MKNK1 (amino acids 1-424 and T344D of accession number BAA 19885.1), expressed in insect cells using baculovirus expression system and purified via glutathione sepharose affinity chromatography, was purchased from Carna Biosciences (product no 02-145) and used as enzyme. As substrate for the kinase reaction the biotinylated peptide biotin-Ahx-[…] (C-terminus in amide form) was used which can be purchased e.g. form the company Biosyntan (Berlin-Buch, Germany).
For the assay […] of a 100 fold concentrated solution of the test compound in DMSO was pipetted into a black low volume 384 well microtiter plate (Greiner Bio-One, Frickenhausen, Germany), 2 μL of a solution of MKNK1 in aqueous assay buffer [50 mM HEPES pH 7.5, 5 mM magnesium chloride, 1.0 mM dithiothreitol, 0.005% (v/v) Nonidet-P40 (Sigma)] was added and the mixture was incubated for 15 min at 22° C. to allow pre-binding of the test compounds to the enzyme before the start of the kinase reaction. Then the kinase reaction was started by the addition of 3 μL of a solution of adenosine-tri-phosphate (ATP, 16.7 μM=>final conc. in the 5 μL assay volume is 10 μM) and substrate (0.1 μM=>final conc. in the 5 μL assay volume is 0.06 μM) in assay buffer and the resulting mixture was incubated for a reaction time of 45 min at 22° C. The concentration of MKNK1 was adjusted depending of the activity of the enzyme lot and was chosen appropriate to have the assay in the linear range, typical concentrations were in the range of 0.05 μg/ml. The reaction was stopped by the addition of 5 μL of a solution of TR-FRET detection reagents (5 nM streptavidine-XL665 [Cisbio Bioassays, Codolet, France] and 1 nM anti-ribosomal protein S6 (pSer236)-antibody from Invitrogen [#44921G] and 1 nM LANCE EU-W1024 labeled ProteinG [Perkin-Elmer, product no. AD0071]) in an aqueous EDTA-solution (100 mM EDTA, 0.1% (w/v) bovine serum albumin in 50 mM HEPES pH 7.5).
The resulting mixture was incubated for 1 h at 22° C. to allow the formation of complex between the phosphorylated biotinylated peptide and the detection reagents. Subsequently the amount of phosphorylated substrate was evaluated by measurement of the resonance energy transfer from the Eu-chelate to the streptavidine-XL. Therefore, the fluorescence emissions at 620 nm and 665 nm after excitation at 350 nm were measured in a TR-FRET reader, e.g. a Rubystar (BMG Labtechnologies, Offenburg, Germany) or a Viewlux (Perkin-Elmer). […]
With `C[S+]([O-])CCOc1ccc2ncc(-c3cc4ccccc4o3)n2n1` (stereo not shown) [Example II.4, 3-(1-Benzofuran-2-yl)-6-[2-(methylsulfinyl)ethoxy]imidazo[1,2-b]pyridazine], the pIC50 is 8.00.
`COc1cccc2oc(-c3cnc4ccc(OCCCS(C)(=N)=O)nn34)cc12` (stereo not shown) [Example IV.2, 3-(4-Methoxy-1-benzofuran-2-yl)-6-[3-(S-methylsulfonimidoyl)propoxy]imidazo-[1,2-b]pyridazine]: the pIC50 was 8.70.
The same measure for `CS(=O)(CCCOc1ccc2ncc(-c3cc4ccccc4o3)n2n1)=NC(=O)C(F)(F)F` (stereo not shown) [Example IV.3, N-[(3-{[3-(1-Benzofuran-2-yl)imidazo[1,2-b]pyridazin-6-yl]oxy}propyl)(methyl)oxido-lambda^6-sulfanylidene]-2,2,2-trifluoroacetamide]: 7.89; for `CS(=N)(=O)CCCCOc1ccc2ncc(-c3cc4ccccc4o3)n2n1` (stereo not shown) [Example IV.6, 3-(1-Benzofuran-2-yl)-6-[4-(S-methylsulfonimidoyl)butoxy]imidazo[1,2-b]pyridazine]: 8.10.

For orientation: pIC50 means the IC50 on a negative log10 scale, so that one unit is a factor of ten. The low end stands for a high IC50, the high end for a low IC50.
